## Apparent affinities of Ab-14 variants for a coronavirus HR2 peptide

Values reported by Engelhart et al. 2022, doi:10.1038/s41597-022-01779-4 (FLAb copy).

Binding partner: SARS-CoV-2 spike HR2 peptide, sequence PDVDLGDISGINAS.

Each scFv is VH, a 15-residue (Gly4Ser)3 linker, VL, as in the parent Ab-14, and differs from it in the CDRs of the heavy chain only.
VH: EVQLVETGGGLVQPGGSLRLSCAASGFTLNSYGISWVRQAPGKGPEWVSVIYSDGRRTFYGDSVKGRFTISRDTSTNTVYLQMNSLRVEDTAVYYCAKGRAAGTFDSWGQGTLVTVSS
VL: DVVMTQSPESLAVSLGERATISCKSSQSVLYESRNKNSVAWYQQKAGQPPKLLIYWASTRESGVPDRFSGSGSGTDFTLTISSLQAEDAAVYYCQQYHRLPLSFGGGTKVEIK

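Library AAYL49 holds single substitutions and randomly drawn double and triple substitutions in the CDRs. Affinity was read by AlphaSeq, a pooled yeast mating assay with surface-displayed partners. After mating in shaken culture at 30 °C for 16 h, diploids were selected and their barcode pairs sequenced. Each replicate has its own calibration line, from reference interactions of the BCL2 family. The assay was run in three technical replicates.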

Positions count from residue 1 of the parent VH; N30L puts L in place of N. The read-out is the apparent dissociation constant on a log10 scale (nM): the lower, the stronger. Averages over replicates are reported, and they cover detected replicates only. A pair that was not seen in any replicate is written "not detected"; this usually means weak binding, but a binder can also be missed.

changes	mean log10 Kd (nM)	replicates with signal
N30L/D54N/G55P	not detected	0 of 3
V50K/G103Q/S107F	not detected	0 of 3
Y32D/G61F/A102T	not detected	0 of 3
Y32G/D54F/D106P	5.11	1 of 3
L29V/V64H/R100N	3.90	2 of 3
N30W/G103R/F105P	not detected	0 of 3
Y52M/R57E/Y60Q	not detected	0 of 3
F27I/S35L/Y60C	not detected	0 of 3
V50G/G61V/R100D	not detected	0 of 3
F27D/I34L/V64W	not detected	0 of 3
V50I/G61K/K65D	1.72	1 of 3
V50I/G55W/G61A	not detected	0 of 3
T28Y/A102Q	2.36	1 of 3
S63H/F105N	not detected	0 of 3
F27D/D62F/G99V	3.57	1 of 3
G61I/F105H/S107R	4.46	3 of 3
Y52W/R100T/D106P	5.16	3 of 3
Y32C/Y60Q	not detected	0 of 3
F27P/R56D/S107H	3.61	3 of 3
D54E/G61E/K65G	not detected	0 of 3
N30H/I34S/Y60S	5.51	1 of 3
Y32M/G55A/R57T	not detected	0 of 3
S31A/S63T/A102G	not detected	0 of 3
G55S/V64R/F105S	not detected	0 of 3
Y60P/A102M	not detected	0 of 3
G33Q/K65Y/G103P	not detected	0 of 3
L29Y/R57E/T104M	not detected	0 of 3
T28L/I34A/Y60H	not detected	0 of 3
N30K/G61W/S107Y	not detected	0 of 3
Y32A/T104H/S107W	2.51	1 of 3
D54H/R56D/F59I	not detected	0 of 3
L29K/G61C/A101I	5.53	3 of 3
Y52W/G55F/D62H	not detected	0 of 3
N30F/Y60V/D62R	not detected	0 of 3
G26W/D106C	3.56	2 of 3
S35G/V50S/G103T	not detected	0 of 3
L29F/G99V/D106S	1.87	3 of 3
D54I/G55E	not detected	0 of 3
Y52W/R56Q/A102Q	not detected	0 of 3
G26C/R56Q/R57M	not detected	0 of 3
T58W/A102V	not detected	0 of 3
D54Y/Y60Q/S63H	not detected	0 of 3
T58P/G61M/A102N	4.26	1 of 3
R56H/R57H/S107M	not detected	0 of 3
L29C/V50T/R56T	not detected	0 of 3
G33H/I51H/Y52E	not detected	0 of 3
S35F/F59Q/K65Q	not detected	0 of 3
S31M/I34N/T58E	not detected	0 of 3
F27S/G103Q	2.20	3 of 3
F27T/Y52S/V64L	3.94	2 of 3
R100G/A102H/D106R	0.76	3 of 3
I34D/T58M/T104F	not detected	0 of 3
S35I/S63V/G103Q	not detected	0 of 3
D54T/R57L/V64R	not detected	0 of 3
Y32V/F105T	2.73	3 of 3
L29W/Y32M/G61V	not detected	0 of 3
G26R/L29D/G103Y	4.40	1 of 3
G26S/D106C	1.37	3 of 3
N30H/D62M/S63T	not detected	0 of 3
L29M/T58R/A101N	2.37	3 of 3
S31D/F59M/D62P	0.51	3 of 3
V64I/G99M	2.41	1 of 3
T28Y/G61N	4.11	3 of 3
L29V/T58A/D62Q	1.52	3 of 3
I51W/Y52S/A101M	not detected	0 of 3
T28K/V50R/G61V	not detected	0 of 3
N30F/S31P/D62R	4.31	1 of 3
Y32T/T104G/F105H	3.55	3 of 3
S35Y/G99W/G103L	not detected	0 of 3
V50W/I51S/S107A	not detected	0 of 3
G55V/A102V/T104H	4.72	1 of 3
F27M/G33S/G99H	not detected	0 of 3
S53H/F59N/G61T	not detected	0 of 3
N30D/I34M/S35E	3.31	1 of 3

The 9 strongest on average among those seen in every replicate, once more:

| changes | mean log10 Kd (nM) | replicates with signal |
|---|---|---|
| S31D/F59M/D62P | 0.51 | 3 of 3 |
| R100G/A102H/D106R | 0.76 | 3 of 3 |
| G26S/D106C | 1.37 | 3 of 3 |
| L29V/T58A/D62Q | 1.52 | 3 of 3 |
| L29F/G99V/D106S | 1.87 | 3 of 3 |
| F27S/G103Q | 2.20 | 3 of 3 |
| L29M/T58R/A101N | 2.37 | 3 of 3 |
| Y32V/F105T | 2.73 | 3 of 3 |
| Y32T/T104G/F105H | 3.55 | 3 of 3 |

Parent in this assay: reference entry 0.65, copy in this library 4.11 (one replicate of three). Empty control strains, which show no peptide, gave a signal in 15% of pairings with library AAYL49; the median was 4.06 and 95% of these signals were weaker than 2.83. No background was subtracted.